## Ab-14 light chain CDR variants: yeast mating affinities

Target peptide (SARS-CoV-2 spike, HR2 region): PDVDLGDISGINAS

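These sequences belong to a second round, designed from the earlier measurements on random variants of the parent. Group labels follow the data file (Ctrl: baseline library sampled from a position-specific scoring matrix, with some repeated check sequences; Rand: our label for a block that the file lists under HC and that is probably the random mutants of the ten best first-round binders; GP: Gaussian process model; HC: hill climbing; Gen: genetic algorithm; Gibbs: Gibbs sampling; a sequence that several methods proposed may carry one label only). Affinity was read by AlphaSeq, a pooled yeast mating assay with surface-displayed partners. Mating (16 h, 30 °C) was followed by selection of diploids and sequencing of their barcodes. Scores were corrected for input abundance and mapped to Kd with protein pairs of known affinity run in the same pool. Each pool was mated in six replicate cultures.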

Each scFv is VH, a 15-residue (Gly4Ser)3 linker, VL, as in the parent Ab-14, and differs from it in the CDRs of the light chain only.
VH: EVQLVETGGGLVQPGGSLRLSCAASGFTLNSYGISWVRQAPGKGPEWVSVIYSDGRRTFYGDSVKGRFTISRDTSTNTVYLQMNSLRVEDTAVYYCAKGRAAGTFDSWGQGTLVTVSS
VL: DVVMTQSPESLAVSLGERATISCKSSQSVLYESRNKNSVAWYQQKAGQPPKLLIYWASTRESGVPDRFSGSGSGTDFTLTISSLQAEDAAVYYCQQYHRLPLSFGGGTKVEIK

Substitutions are numbered in sequence along the VL above, starting at 1 (not Kabat). This list holds designs with at most six substitutions. Values are apparent Kd, the geometric mean of the replicates that gave a signal; lower means stronger binding. An entry "nd" has no value in the source: the pair was not observed among the diploids in any replicate. This suggests poor binding but is not conclusive. The list is sorted by this average, lowest first, undetected variants last. The authors averaged sequences with at least three values out of six and counted those with two or fewer as poor binders. Of ten entries with the parent sequence, four were seen in most replicates (averages 2.2 nM to 240 nM), three in one and three in none, so single entries are noisy. Empty control strains, which show no peptide, gave a signal in 4% of pairings with all light chain designs; the median was 430 nM and 95% of these signals were weaker than 38 nM. No background was subtracted. A sequence measured in both rounds can read differently, since the two assays cover different ranges.

S25L+W56N+S58D [GP_Gen]: 320 pM (6 of 6 replicates).
S25L+S26E+S38N+W56N [GP_Gen]: 370 pM (6 of 6 replicates).
S28N+Y31G+E32D+W56D [Ctrl]: 540 pM (6 of 6 replicates).
S25L+S26P+W56H+S62D+Q96S [GP_HC]: 570 pM (6 of 6 replicates).
S25M+S26E+S28G+N37M+W56G+T59V [GP_HC]: 580 pM (6 of 6 replicates).
S25L+V29M+W56N+E61M+S62E [GP_Gen]: 620 pM (6 of 6 replicates).
S25Y+L30V+K36Q+W56Q+T59V+S103T [Ctrl]: 810 pM (6 of 6 replicates).
S25L+S26Q+V29D+W56H [GP_Gen]: 860 pM (6 of 6 replicates).
S25Y+V29W+W56N+T59Q [GP_Gen]: 890 pM (6 of 6 replicates).
S25W+Q27F+S28L+Y31G+W56D [GP_Gibbs]: 900 pM (6 of 6 replicates).
S25L+V29E+K36S+W56E [GP_Gen]: 940 pM (6 of 6 replicates).
S25V+V29F+S38A+W56A [GP_HC]: 1.0 nM (6 of 6 replicates).
S25L+V29Y+W56N+S62W [GP_Gen]: 1.1 nM (6 of 6 replicates).
S25L+S26M+V29Q+N35M+W56N [GP_Gen]: 1.1 nM (6 of 6 replicates).
S25C+S26K+V29S+L30D+K36F+W56N [GP_Gibbs]: 1.2 nM (6 of 6 replicates).
S25V+V29G+W56N+T59Q [GP_Gen]: 1.2 nM (6 of 6 replicates).
K24H+S25L+Q27W+S28V+V29S+W56N [GP_HC]: 1.3 nM (6 of 6 replicates).
K36P+W56A+R99K [Ctrl]: 1.3 nM (6 of 6 replicates).
S26G+S28G+N37M+W56G [GP_HC]: 1.4 nM (6 of 6 replicates).
S25F+V29G+W56E [GP_Gen]: 1.5 nM (6 of 6 replicates).
Q27I+V29Y+L30E+Y31E+W56E [GP_HC]: 1.6 nM (6 of 6 replicates).
L30W+Y31M+W56D [GP_HC]: 1.8 nM (6 of 6 replicates).
K24H+Q27P+K36G+W56N+S62Q [GP_HC]: 1.8 nM (6 of 6 replicates).
S25L+S26Q+V29M+L30P+W56N [GP_Gen]: 1.9 nM (6 of 6 replicates).
V29G+W56E+S62A+H98V+R99D [Ctrl]: 2.6 nM (6 of 6 replicates).
S25L+S26Q+N35M+W56N+E61S [GP_Gen]: 2.7 nM (6 of 6 replicates).
S25V+S26Q+V29Q+W56N+T59Q [GP_Gen]: 2.7 nM (6 of 6 replicates).
S28V+V29Y+W56G [Rand]: 3.3 nM (6 of 6 replicates).
N37W+H98S [Ctrl]: 23 nM (1 of 6 replicates).
S25F+R34K+Q96V [Ctrl]: 24 nM (5 of 6 replicates).
K24H+Q27P+W56N+P101G+S103Q [Rand]: 68 nM (6 of 6 replicates).
E61A [Ctrl]: 110 nM (6 of 6 replicates).
Q27H+R34T+N35L [Ctrl]: 110 nM (6 of 6 replicates).
R34F+N37K [Ctrl]: 310 nM (3 of 6 replicates).
S28G+Y31Q+S38G+T59K [Ctrl]: 340 nM (4 of 6 replicates).
S26M+S62V+S103D [Ctrl]: 610 nM (2 of 6 replicates).
S25H+Y31G+A40W+W56Q [Ctrl]: nd (0 of 6 replicates).
S38A+V39I+E61S [Ctrl]: nd (0 of 6 replicates).
K24Y+Y31E+Q96D+Y97P [Ctrl]: nd (0 of 6 replicates).
S25M+S28Q+N35P [Ctrl]: nd (0 of 6 replicates).
Y31N+E61L+P101H [Ctrl]: nd (0 of 6 replicates).
K24Y+S25L+S26R+V29T+S38P [Rand]: nd (0 of 6 replicates).
W56P+R99W [Ctrl]: nd (0 of 6 replicates).
W56G+R99I [Ctrl]: nd (0 of 6 replicates).
S25N+L30Y+N35F [Ctrl]: nd (0 of 6 replicates).

Top 3 of the variants detected in all replicates, tightest first:

Variant S25L+W56N+S58D [GP_Gen] gave 320 pM (6 of 6 replicates).
Variant S25L+S26E+S38N+W56N [GP_Gen] gave 370 pM (6 of 6 replicates).
Variant S28N+Y31G+E32D+W56D [Ctrl] gave 540 pM (6 of 6 replicates).

Values reported by Li et al. 2023, doi:10.1038/s41467-023-39022-2 (FLAb copy).